According to patent US20120283096A1, “AGENT FOR IMPROVING PLANT GROWTH, SEEDS, AND METHOD FOR IMPROVING PLANT GROWTH” (Incorporated Administrative Agency National Agricu lture …, priority 2010, published 2012):

How the values were obtained:
[1] = in water, powder, cited from earlier work
sulfide ion generation = assay: Inhibition of sulfide ion generation, paddy seeds covered with slightly-soluble substances (Example 2-3, FIG. 9); settings: approximately 0.1 mmol/g (per dry seeds) in terms of molybdenum or tungsten
Description: The water on slightly germinated seeds was lightly wiped off, and immediately after that, the seeds were put with (lightly covered with) various amounts of the slightly-soluble substances shown in Table 1. […] The number of days for which sulfide ion generation was inhibited and the proportion of seedling establishment were examined.

paddy seeds = assay: Possibility of growth of paddy seeds in tank farming without soil (Example 3)
Procedure: The decay-inhibiting effect of molybdenum-containing substances in tank farming without soil was examined.
The possibility of growth and the inhibition of decay were determined in the same manner as above.

paddy rice = assay: Seedling establishment of paddy seeds soaked in solutions of readily-soluble molybdenum substances (Example 2-2, FIGS. 8 and 13); type: in vivo; settings: ten-minute soaking
Procedure: The examination of the proportion of seedling establishment was carried out under the same conditions as the examination whose results are shown in FIG. 8, except for the molybdenum concentration and the duration of soaking.

Row | Substance | Water solubility [1] | number of days for which sulfide ion generation was inhibited (sulfide ion generation) | Water solubility ([1]; listed as molybdophosphoric acid) | Soaking: Possibility of growth, Concentration of Molybdenum in Solution (paddy seeds; in vivo) | Ten-minute soaking: Possibility of growth, Concentration of Molybdenum in Solution (paddy seeds; in vivo) | Water solubility ([1]; listed as ammonium molybdate) | Soaking: Possibility of growth, Concentration of Molybdenum in Solution (paddy seeds; paddy seeds left soaked two weeks in the solution at 30° C., no soil, concentration at which sheath leaf elongation was observed) | Ten-minute soaking: Possibility of growth, Concentration of Molybdenum in Solution (paddy seeds; seeds soaked ten minutes in the solution, then two weeks in water at 30° C.) | molybdenum concentration of the soaking solution at which proportion of seedling establishment improved (paddy rice; FIG. 8) | proportion of seedling establishment (paddy rice; soaking solution 2 M molybdenum)
1 | Ammonium phosphotungstate trihydrate [Ammonium tungstophosphate] | Slightly soluble (has a percentage of solubility of 10% by weight or lower with respect to water) | fourteen | – | – | – | – | – | – | – | –
2 | 12-moblybdo(VI)phosphoric acid n-hydrate [Molybdophosphoric acid] | Readily soluble | – | readily soluble | 0.03 M | 1< M | – | – | – | – | –
3 | Ammonium molybdate tetrahydrate | Readily soluble | – | – | – | – | readily soluble | 0.06 M | 1< M | approximately 1 M | decrease in proportion of seedling establishment

Read-outs that look alike come from different tables or passages of the source.
